From patent publication US20050002552A1, “Automated in vitro cellular imaging assays for micronuclei and other target objects” (Pfizer Inc, priority 2003, published 2005)

Tested on: Chinese hamster ovary cells
Conditions: 0.05 mcg/ml, 24 hours, Cytochalasin B protocol, independent duplicate wells, listed as mitomycin C

Compound: CO[C@@]12[C@H](COC(N)=O)C3=C(C(=O)C(C)=C(N)C3=O)N1C[C@@H]1N[C@@H]12 [Mitomycin C]
- Auto MN % (micronuclei frequency, automated method of this invention) (automated scoring): 2.7%
- Manual MN % (micronuclei frequency, number of micronuclei divided by number of binucleated cells, manual scoring) (manual scoring): 3.8%
